pKd: −log10 of the molar value.
Target: SNAP tagged AT2R (angiotensin II type 2 receptor) (UniProt P50052)
Test: AlphaScreen or HTRF; saturation binding: increasing concentrations of DY647-AngII on HEK293 cells overexpressing SNAP-AT2R labeled with Lumi4-Tb; Tag-lite labeling buffer; 3 h in the dark at 4 °C; HTRF ratio 665/620 nm

Sequences of proteins named here, by UniProt entry; tags and fusion partners are left off. A change or cut given only in a name is not applied to a line headed by its entry.
UniProt P50052: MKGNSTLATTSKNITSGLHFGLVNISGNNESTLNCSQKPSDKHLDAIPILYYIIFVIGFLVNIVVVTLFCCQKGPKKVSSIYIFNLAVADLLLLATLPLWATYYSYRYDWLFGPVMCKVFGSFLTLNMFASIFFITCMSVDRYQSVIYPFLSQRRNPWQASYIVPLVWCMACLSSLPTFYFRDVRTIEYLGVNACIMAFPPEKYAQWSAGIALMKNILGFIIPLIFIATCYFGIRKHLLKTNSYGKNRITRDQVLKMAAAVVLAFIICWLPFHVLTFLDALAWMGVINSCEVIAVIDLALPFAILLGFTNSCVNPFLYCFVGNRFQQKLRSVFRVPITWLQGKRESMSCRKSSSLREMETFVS

fluorescently labelled AngII (DY647-AngII) (peptide)
pKd: 8.52
